We go through one molecule from US8987474B2 (University of South Florida, priority 2006, dated 2015).

By UniProt entry, the sequences of proteins in these tests, tags left out. Chains listed by the source or under a name are the forms on record and can include a tag or linker.
UniProt P35236, other isoform, or with tags, fused parts or gaps: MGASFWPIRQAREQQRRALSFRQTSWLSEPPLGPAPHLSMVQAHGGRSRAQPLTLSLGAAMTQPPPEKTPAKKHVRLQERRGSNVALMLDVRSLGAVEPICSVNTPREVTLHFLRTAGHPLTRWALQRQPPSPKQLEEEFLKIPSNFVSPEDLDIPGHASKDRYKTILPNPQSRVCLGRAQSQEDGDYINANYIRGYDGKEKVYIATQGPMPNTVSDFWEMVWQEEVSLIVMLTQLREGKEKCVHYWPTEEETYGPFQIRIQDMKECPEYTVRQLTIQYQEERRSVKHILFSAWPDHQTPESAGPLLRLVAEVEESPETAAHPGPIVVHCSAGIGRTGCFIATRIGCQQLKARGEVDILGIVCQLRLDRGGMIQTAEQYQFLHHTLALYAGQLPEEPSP

The target of the assay is HePTP (Homo sapiens (Human), UniProt P35236). The assay is described as follows: biochemical. An excerpt:
All constructs were verified by DNA sequencing.
Recombinant DEP1 was from Abcam.

For the molecule `O=S(=O)(O)c1ccc2cc(/N=N\c3cc(S(=O)(=O)O)c4cccnc4c3O)ccc2c1` [NSC-87877, 8-hydroxy-7-(6-sulfonaphthalen-2-yl)diazenyl-quinoline-5-sulfonic acid], the IC50 was 7.74 ± 1.56 µM.
